This is one part of the list.

The test system of the experiment is A. baumannii ATCC 17978. Briefly: relative growth (fraction of control); higher = less inhibition. To be noted: 50 µM.
`Br.Cn1c(=O)c2c(ncn2C)n(C)c1=O` gave a relative growth of 0.863.
The molecule `CCOC(=O)C[C@@H](N)c1cccc(O)c1` came in with a relative growth of 1.01.
The molecule `O=C(C[C@@H]1CC[C@@H]2[C@H](COC[C@H](O)CN2C(=O)c2ccccc2)O1)N1CCOCC1` had a relative growth of 1.07.
In turn, `COc1cc2c(cc1OC)CN(C(=O)[C@@H]1[C@H]3C(=O)O[C@H](c4ccccc4)[C@H](c4ccccc4)N3[C@H](c3ccc(O)cc3)[C@@]13C(=O)Nc1ccc(C#CCCO)cc13)CC2` displayed a relative growth of 1.07.
`COC(=O)C[C@H]1CC[C@@H]2[C@H](COC[C@@H](O)CN2S(=O)(=O)c2ccccc2C)O1` showed a relative growth of 0.894.
Take `CS(=O)(=O)N1CCc2ccc(N)cc2C1`: the relative growth amounted to 1.02.
Next, `CCOC(=O)OC(C)OC(=O)C1N2C(=O)C(NC(=O)[C@H](N)c3ccccc3)C2SC1(C)C.Cl` (some centres undefined): 0.489; `COc1ccc([Si](C)(C)[C@@H]2[C@@H](CCO)O[C@]3(C(=O)N(Cc4ccc(N5CCCCC5=O)cc4)c4ccccc43)[C@H]2C)cc1`: 0.86.
To `CC(=O)N(C)C[C@@H]1Oc2cc(C#CCN(C)C)ccc2S(=O)(=O)N([C@H](C)CO)C[C@H]1C` belongs 0.889; to `CN(C)C1CN(S(=O)(=O)CCC2CC2)C1`, 1.05; to `COc1cc(OC)c2c(c1Cl)OC1(C2=O)C(O)=CC(=O)CC1C` (centres undefined), 0.944.
Regarding `OC[C@H]1O[C@H](C#Cc2ccccc2)C=C[C@@H]1O`, the relative growth came to 0.975.
Consider `O=C(C[C@@H]1C[C@H]2c3cc(NC(=O)c4cccnc4)ccc3O[C@H]2[C@H](CO)O1)NCc1cc(F)ccc1F`, for which the relative growth is 0.764.
`c1csc(-c2nc3ccc4ccccc4c3c3c2CCC3)c1` displayed a relative growth of 1.21.
For `COC1=C(OC)C(=O)C(C/C=C(\C)CC/C=C(\C)CC/C=C(\C)CC/C=C(/C)CC/C=C(\C)CC/C=C(\C)CC/C=C(\C)CC/C=C(\C)CC/C=C(\C)CCC=C(C)C)=C(C)C1=O`, the relative growth came out at 1.02.
Turning to `Cn1cnc(S(=O)(=O)N[C@H]2CC[C@H](CC(=O)N3CCN(c4ccccc4)CC3)O[C@H]2CO)c1`, the relative growth was found to be 0.84.
To `C/C=C(/C(=C/C)c1ccc(O)cc1)c1ccc(O)cc1` belongs 0.898.
In turn, `COCC(=O)N1C[C@@H](C)[C@@H](OC)CN(C)C(=O)c2ccc(NC(=O)Nc3cccc(F)c3)cc2OC[C@H]1C` came in with a relative growth of 1.07.
For the molecule `C=C1SC(Nc2c(C)cccc2C)=NC12CCCCC2`, the relative growth turned out to be 0.837.
To `Cc1ccc(S(=O)(=O)n2cc([C@H]3CC(=O)N(C(=O)OCc4ccccc4)[C@H]3C(=O)Nc3cccc4cccnc34)c3ccccc32)cc1` belongs 1.18; to `CC1(C)NCS[C@H]1C(=O)O`, 1.16.
The molecule `NCC[C@H]1CC[C@@H](NC(=O)c2ccccc2F)[C@@H](CO)O1` came in with a relative growth of 1.05.
Molecule `O=C(C[C@H]1C=C[C@H](NS(=O)(=O)c2ccccc2F)[C@H](CO)O1)NCCCN1CCOCC1` registered a relative growth of 0.929.
`COc1ccc(-c2ccc3c(c2)O[C@@H](CN(C)CC2CCOCC2)[C@H](C)CN([C@@H](C)CO)S3(=O)=O)cc1` registered a relative growth of 0.848.
Molecule `N#Cc1ccc(N2CCCNCC2)nc1` showed a relative growth of 0.959.
To `COC(=O)[C@H]1CCCC[C@@H]1CN` belongs 1.07; to `NCCCCCCNC(=O)[C@@H]1C[C@@H]2C(=O)N[C@@H](CCCCN)C(=O)N2[C@@H]1c1ccc(O)cc1`, 0.85; to `COc1ccc(CSCCN)cc1Cl`, 0.936.
The molecule `O=C(C[C@@H]1CC[C@H]2NC[C@@H](O)COC[C@@H]2O1)NCCN1CCCC1` returned a relative growth of 0.893.
For the molecule `CC(=O)Oc1cccc(C)c1` [meta-CRESYL ACETATE], the relative growth stood at 1.04.
Turning to `COCC(=O)N(C)C[C@H]1Oc2cc(C#CCN(C)C)ccc2S(=O)(=O)N([C@@H](C)CO)C[C@@H]1C`, the relative growth stood at 1.01.
With `O=C(N[C@H]1CC[C@H](CCNS(=O)(=O)c2ccc(F)cc2)O[C@H]1CO)C1CC1`, the relative growth was 0.936.
As for `CC(=C\C(=O)O)/C=C(\C)C[C@H](C)CCCC[C@H](OC(=O)[C@H](CO)[C@H](O)CCCC[C@H](C)C/C(C)=C/C(C)=C/C(=O)O)[C@@H](CO)C(=O)O`, the relative growth was determined as 1.09.
For `CC(C)CC#Cc1ccc2c(c1)O[C@H](CN(C)Cc1cncnc1)[C@@H](C)CN([C@H](C)CO)S2(=O)=O`, the relative growth was 0.871.
To `Cn1c(=O)c2c(nc(SCCNS(=O)(=O)c3ccccc3)n2C)n(C)c1=O` belongs 0.971.
Molecule `COc1cccc(S(=O)(=O)N(C)C[C@H]2Oc3ncc(C#CCN(C)C)cc3C(=O)N([C@@H](C)CO)C[C@H]2C)c1` returned a relative growth of 1.27.
Molecule `C=CCCCCCCCCC(=O)[O-].C=CCCCCCCCCC(=O)[O-].[Zn+2]` came in with a relative growth of 1.01.
Molecule `CCS(=O)(=O)NCC[C@H]1CC[C@H](NS(=O)(=O)c2ccccc2C)[C@H](CO)O1` displayed a relative growth of 1.12.
Next, `C[C@@H]1[C@@H](O)[C@@H](N(C)C)C[C@H]2COC[C@@H]21`: 1.03; `CCOC(=O)[C@H]1C/C=C/C[C@H](C(=O)OCC)C(=O)O[C@H]2[C@@H](OC)O[C@H](CO)[C@@H](OC(=O)Nc3ccc(OC)cc3)[C@@H]2OC1=O`: 1.04; `CCNC(=O)/C=C/c1cccc(Br)c1`: 1.06.
Consider `COc1ccc(-c2c(C)oc3ccc(Cl)cc23)cc1`, for which the relative growth amounted to 1.08.
Molecule `O=C(O)CCNC(=O)c1cncc(O)c1` registered a relative growth of 0.917.
`O=C(C[C@@H]1C=C[C@@H](NC(=O)Cc2ccccn2)[C@@H](CO)O1)NCCc1ccncc1` gave a relative growth of 1.05.
To `O=C(C[C@@H]1CC=CC[C@@H](NC(=O)OCC2c3ccccc3-c3ccccc32)C(=O)OC[C@H](Cc2ccccc2)NC1=O)N[C@H](CO)Cc1ccccc1` belongs 1.15; to `O=c1ccc2c[nH][nH]c-2c1`, 1.03; to `CN(C)CCCOc1nn(Cc2ccccc2)c2ccccc12.Cl`, 0.974.
As to `O=c1[nH]ccn(-c2ccccc2)c1=O`, the relative growth came to 1.03.
In turn, `Cc1cc(O)n(CCCO)c(=O)c1C#N` yielded a relative growth of 1.
Turning to `CN(C)CC(=O)N[C@H]1CC[C@@H](CC(=O)NCCN2CCCCC2)O[C@H]1CO`, the relative growth came to 0.9.
Molecule `CCOC(=O)Cn1c(=O)c2c(OC)ccnc2n(C)c1=O` had a relative growth of 1.06.
On to `COc1ccc(CCNC(=O)[C@@]2(Sc3ccc(C)cc3)CC(=O)N(Cc3cc(C(F)(F)F)cc(C(F)(F)F)c3)[C@@H]2c2ccc(CO)cc2)cc1`, for which the relative growth was found to be 1.02.
To `CS(=O)(=O)CCOC(=O)C1=CC(c2ccc(CO)cc2)=C[C@@H](C2CC2)N(Cc2cc3c(cc2Br)OCO3)C=C1C(=O)OCCS(C)(=O)=O` belongs 0.924; to `C[C@H](O)C#Cc1ccc2c(c1)O[C@H](CN(C)C(=O)CN(C)C)[C@H](C)CN([C@H](C)CO)S2(=O)=O`, 1.04.

These data come from published antibiotic growth screens (doi:10.1038/s41589-023-01349-8).
